Laboratory results taken from PubChem BioAssay AID746 (The Scripps Research Institute Molecular Screening Center, 2007).
The entries are a selection whose mix differs from that of the whole data set. Some results for these compounds are left out of this collection, so the calls shown say nothing about other tests. Activity calls are given as the source filed them. No stated cut-off is given here; in the data, active means inhibition above about 17%; inactive means the rest.

By UniProt entry, the sequences of proteins in these tests, tags left out.
UniProt P53779, whole entry: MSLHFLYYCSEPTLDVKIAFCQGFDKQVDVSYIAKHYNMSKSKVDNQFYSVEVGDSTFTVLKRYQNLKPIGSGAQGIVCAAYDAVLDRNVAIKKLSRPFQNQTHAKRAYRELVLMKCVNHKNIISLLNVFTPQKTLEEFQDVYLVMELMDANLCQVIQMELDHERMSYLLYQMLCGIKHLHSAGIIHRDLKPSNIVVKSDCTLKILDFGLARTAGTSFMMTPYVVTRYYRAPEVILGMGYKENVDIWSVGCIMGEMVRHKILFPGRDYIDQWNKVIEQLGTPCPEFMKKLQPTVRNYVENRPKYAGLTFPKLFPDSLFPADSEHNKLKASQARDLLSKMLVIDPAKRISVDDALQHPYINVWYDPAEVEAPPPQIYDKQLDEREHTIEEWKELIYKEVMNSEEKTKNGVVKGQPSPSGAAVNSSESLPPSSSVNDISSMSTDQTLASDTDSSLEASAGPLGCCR

Target: Mitogen-activated protein kinase 10 (Homo sapiens) (UniProt P53779)
Assay: JNK3 kinase activity inhibitors, primary screen, biochemical, human, purified enzyme (AID 746);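 further: 0% = DMSO and 100% = reference inhibitor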
Conditions: HTS, at 8 µM, hits give high values

SMILES	inhibition
O=C(OC1CN2CCC1CC2)C(CO)(c1ccccc1)c1ccccc1 (configuration not stated)	inactive: 1.1%
CN(C)c1cccc(C(=O)NCC2(N(C)C)CCCCC2)c1	inactive: -8.6%
